Laboratory results published in ChEMBL document CHEMBL5518203, “Rational Design of Benzobisheterocycle Metallo-β-Lactamase Inhibitors: A Tricyclic Scaffold Enhances Potency against Target Enzymes” (J Med Chem, 2024).

The chains behind the UniProt entries cited, without tags or fusion partners. Where a name states a change or a piece, a line headed by the entry shows the natural chain unless it says otherwise.
UniProt C7C422: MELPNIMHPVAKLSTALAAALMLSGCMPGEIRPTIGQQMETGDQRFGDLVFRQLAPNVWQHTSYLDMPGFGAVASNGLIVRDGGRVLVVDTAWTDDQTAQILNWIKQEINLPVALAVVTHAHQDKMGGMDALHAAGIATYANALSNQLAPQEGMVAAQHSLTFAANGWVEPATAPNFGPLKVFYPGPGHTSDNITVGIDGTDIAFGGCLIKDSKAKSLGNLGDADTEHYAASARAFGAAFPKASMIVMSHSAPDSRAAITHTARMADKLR

Target: Metallo-beta-lactamase type 2 (Bacteria) (UniProt C7C422)
Experiment: Inhibition of full length NDM-1 (unknown origin) expressed in Escherichia DH5alpha at 100 microg/ml measured at 1 to 5 hrs
Details: dose 100.0 µg/ml, time 1-5 hrs

SC[C@H]1SC[C@@H]2Nc3ccccc3N21 (relative stereo)
inhibition: Active

Activity calls are given as the source filed them. No cut-off for these calls is given here.
